The numbers were not newly measured in PubChem BioAssay AID1811, which cites them from elsewhere.

Broadly, the Ki is the dissociation constant of the complex between target and ligand, obtained from inhibition or displacement. The IC50 is the point on the concentration scale where inhibition reaches its midpoint. One may read the Kd as the constant that tells how readily two partners part at equilibrium.

Assay in all cases: PubChem AID 1811
One data set has as its target beta-lactamase. Particulars: PDB complex binding affinities from literature; Ki when reported.
A further data set deals with beta-lactamase ctx-m-9a. Particulars: PDB complex binding affinities from literature; Ki when reported.
The target in a further data set is beta-lactamase tem. To be noted: PDB complex binding affinities from literature; Ki when reported.
The next data set has as its target chorismate mutase. Particulars: PDB complex binding affinities from literature; Ki when reported.
The target in data set [1] is Human Beta-Secretase (BACE). To be noted: PDB complex binding affinities from literature; IC50 when reported.
The next data set has as its target CpNagJ. To be noted: PDB complex binding affinities from literature; Ki when reported.
For data set [2], the target named is pulmonary surfactant-associated protein d. To be noted: PDB complex binding affinities from literature; IC50 when reported.
In data set [3] the target is CORTICOSTEROID-BINDING GLOBULIN
Particulars: PDB complex binding affinities from literature; Kd when reported.

In data set [4] the target is peroxisome proliferator activated receptor ppar. Particulars: PDB complex binding affinities from literature; IC50 when reported.
Another data set concerns the target ctp synthase. To be noted: PDB complex binding affinities from literature; Ki when reported.
In the next data set the target is Estrogen receptor alpha. Particulars: PDB complex binding affinities from literature; Ki when reported.
The target of data set [5] is Casein kinase II subunit alpha. To be noted: PDB complex binding affinities from literature; Ki when reported.
Data set [6] addresses 3-phosphoshikimate 1-carboxyvinyltransferase. To be noted: PDB complex binding affinities from literature; IC50 when reported.
A further data set has as its target shikimate kinase. To be noted: PDB complex binding affinities from literature; Kd when reported.
A further data set deals with thrombin light chain. Particulars: PDB complex binding affinities from literature; IC50 when reported.
A further data set concerns the target Sucrose isomerase. To be noted: PDB complex binding affinities from literature; Ki when reported.
The target of data set [7] is l-arginine glycine amidinotransferase. To be noted: PDB complex binding affinities from literature; Ki when reported.
For a further data set, the target named is diga16. Particulars: PDB complex binding affinities from literature; Kd when reported.
For the next data set, the target named is arginase 1. To be noted: PDB complex binding affinities from literature; Ki when reported.
In another data set the target is citrate synthase. Particulars: PDB complex binding affinities from literature; Kd when reported.
Another data set concerns the target dihydrofolate reductase. To be noted: PDB complex binding affinities from literature; Kd when reported.
Data set [8] deals with cell division protein kinase 6. To be noted: PDB complex binding affinities from literature; IC50 when reported.
In data set [9] the target is Fructose-bisphosphate aldolase A. Particulars: PDB complex binding affinities from literature; Ki when reported.
The target of a further data set is beta-spectrin. Particulars: PDB complex binding affinities from literature; Kd when reported.
A further data set deals with phospholipase C delta-1. Particulars: PDB complex binding affinities from literature; Kd when reported.
The target in data set [10] is Rho GTPase-activating protein 9. To be noted: PDB complex binding affinities from literature; Kd when reported.
Data set [11] addresses Replicase polyprotein 1ab. To be noted: PDB complex binding affinities from literature; Ki when reported.
The target of a further data set is kes1 protein. Particulars: PDB complex binding affinities from literature; Kd when reported.
The next data set concerns the target Alpha-mannosidase II. To be noted: PDB complex binding affinities from literature; IC50 when reported.
Data set [12] addresses phosphonopyruvate hydrolase. To be noted: PDB complex binding affinities from literature; Ki when reported.
The target of data set [13] is phosphoenolpyruvate-protein phosphotransferase. Particulars: PDB complex binding affinities from literature; Ki when reported.
Data set [14] has as its target OROTIDINE 5-PHOSPHATE DECARBOXYLASE
Particulars: PDB complex binding affinities from literature; Ki when reported.

The target in data set [15] is apoptosis regulator bcl-x. To be noted: PDB complex binding affinities from literature; Kd when reported.
For the next data set, the target named is NarGHI. Particulars: PDB complex binding affinities from literature; Ki when reported.

`O=C(Cc1cccs1)N[C@H]([Al])c1cccc(C(=O)O)c1`: the Ki on beta-lactamase was 17 nM; on beta-lactamase ctx-m-9a, 578 nM; at beta-lactamase tem, 64 nM.

Take `N[C@@H](Cc1ccc(O)cc1)C(=O)O`: the Ki at chorismate mutase was 50 µM.

As to `CCCN(CCC)C(=O)c1cc(C)cc(C(=O)N[C@@H](Cc2cc(F)cc(F)c2)[C@H](O)CNCc2cccc(I)c2)c1`, the concentration for half-maximal inhibition (IC50) in [1] was 5 nM.

Regarding `CC(=O)N[C@H]1/C(=N/OC(=O)Nc2ccccc2)O[C@H](CO)[C@@H](O)[C@@H]1O`, the Ki at CpNagJ is 5.4 nM.

`OC[C@H]1O[C@H](O[C@H]2[C@H](O)[C@@H](O)[C@@H](O[C@H]3[C@H](O)[C@@H](O)[C@H](O)O[C@@H]3CO)O[C@@H]2CO)[C@H](O)[C@@H](O)[C@@H]1O`: the IC50 in data set [2] is 940 µM.

In the case of `C[C@]12CCC(=O)C=C1CC[C@@H]1[C@@H]2[C@@H](O)C[C@@]2(C)[C@H]1CC[C@]2(O)C(=O)CO`, in data set [3], the dissociation constant Kd is 5 nM.

With `CC/C=C\C/C=C\C/C=C\C/C=C\C/C=C\CCCC(=O)O`, the IC50 in data set [4] was 4 µM.

For the molecule `Nc1ccn([C@@H]2O[C@H](COP(=O)(O)OP(=O)(O)OP(=O)(O)O)[C@@H](O)[C@H]2O)c(=O)n1`, on ctp synthase, the Ki was 110 µM.

`Oc1ccc([C@@H]2Oc3cccc(O)c3[C@@H]3CCC[C@@H]32)cc1`: at Estrogen receptor alpha, the Ki is 0.29 nM.

On to `Brc1c(Br)c(Br)c2[nH]cnc2c1Br`, for which the Ki in data set [5] was 300 nM.

Take `O=C(O)C1=C[C@@H](O)[C@@H](O)[C@H](O)C1`: the 50% inhibitory concentration (IC50) in data set [6] is 1.2 mM. For the same molecule, the equilibrium dissociation constant (Kd) on shikimate kinase is 44 µM.

Consider `N=C(N)c1ccc(CNC(=O)[C@@H]2CCCN2C(=O)[C@@H](CC2CCCCC2)NCC(=O)O)s1`, for which the IC50 at thrombin light chain was 0.98 nM.

`O[C@H]1[C@H](O)[C@@H](O)CN2CC[C@H](O)[C@H]12`: the Ki on Sucrose isomerase is 15 µM.

Turning to `NCCC[C@H](N)C(=O)O`, the Ki was 253 µM in data set [7] and 1000 µM at arginase 1. Moreover, the dissociation constant (Kd) at diga16 is 30 nM.

For `O=C(O)CC(=O)C(=O)O`, the Kd at citrate synthase is less than 10 µM.

Turning to `Nc1nc2ncc(CNc3ccc(C(=O)N[C@@H](CCC(=O)O)C(=O)O)cc3)nc2c(=O)[nH]1`, the dissociation constant (Kd) on dihydrofolate reductase is 9.51 µM.

Turning to `CC(C)[C@@H](CO)Nc1nc(Nc2cc(N)cc(Cl)c2)c2ncn(C(C)C)c2n1`, the half-maximal inhibitory concentration (IC50) in [8] is 450 nM.

In the case of `O=C(Nc1ccc(Cl)cc1)c1cc2ccccc2cc1OP(=O)(O)O`, the Ki in data set [9] is 100 µM.

As for `O=P(O)(O)O[C@@H]1[C@H](O)[C@H](O)[C@@H](OP(=O)(O)O)[C@H](OP(=O)(O)O)[C@H]1O`, the Kd was 40 µM on beta-spectrin, 210 nM on phospholipase C delta-1 and 100 nM in data set [10].

`c1ccccc1`: the inhibition constant Ki in data set [11] is 700 nM.

For `CC(C)CCC[C@@H](C)[C@H]1CC[C@H]2[C@@H]3CC=C4C[C@@H](O)CC[C@]4(C)[C@H]3CC[C@]12C`, the Kd at kes1 protein is 300 nM.

Turning to `OC[C@H](NC[C@H]1NC[C@H](O)[C@@H]1O)c1ccccc1`, the concentration for half-maximal inhibition (IC50) at Alpha-mannosidase II was 80 µM.

Take `O=C(O)C(=O)O`: the Ki is 17 µM in [12] and 280 µM in data set [13].

Take `O=c1cc(O)n([C@@H]2O[C@H](COP(=O)(O)O)[C@@H](O)[C@H]2O)c(=O)[nH]1`: the Ki in data set [14] was 8.8 pM.

Regarding `O=C(O)c1ccc(-c2ccc(F)cc2)cc1`, the Kd in [15] was 300 µM.

For the molecule `Oc1c(Cl)c(Cl)c(Cl)c(Cl)c1Cl`, the inhibitory constant (Ki) at NarGHI was 57 nM.
